# Antibody variant affinities, Ab-14 heavy chain, assay B

Target peptide (SARS-CoV-2 spike, HR2 region): PDVDLGDISGINAS

Ab-14 is the parent antibody, in scFv form: VH, then three GGGGS repeats, then VL. The light chain is unchanged in all variants.
VH: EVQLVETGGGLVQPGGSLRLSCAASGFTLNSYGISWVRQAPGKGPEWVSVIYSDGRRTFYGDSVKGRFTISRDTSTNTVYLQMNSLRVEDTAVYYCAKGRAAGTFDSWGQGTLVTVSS
VL: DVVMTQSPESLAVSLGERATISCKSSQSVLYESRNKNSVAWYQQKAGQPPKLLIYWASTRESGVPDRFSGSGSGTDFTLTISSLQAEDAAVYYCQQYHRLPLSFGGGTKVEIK

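The starting antibody came from a phage panning campaign against this peptide. These sequences belong to a second round, designed from the earlier measurements on random variants of the parent. Their group label is 14H_En_Gibbs (En: ensemble of fine-tuned language models; Gibbs: Gibbs sampling). AlphaSeq pools MATa yeast showing the antibodies with MATalpha yeast showing the peptide. After mating in shaken culture at 30 °C for 16 h, diploids were selected and their barcode pairs sequenced. A regression on co-assayed BCL2-family reference pairs converts the normalised counts of each replicate to an apparent Kd. The assay was run in six technical replicates.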

Variants are written as CDR1, CDR2 and CDR3 of the heavy chain (limits as in the source). Parent: GFTLNSYGIS, VIYSDGRRTFYGDSVK, GRAAGTFDS. The read-out is the apparent dissociation constant on a log10 scale (nM): the lower, the stronger. The mean shown is taken over the replicates in which the pair was detected. An entry "ND" has no value in the source: the pair was not observed among the diploids in that replicate. This suggests poor binding but is not conclusive.

CDR-H1	CDR-H2	CDR-H3	log10 Kd (nM) by replicate	mean, log10 nM	empty controls
GFDLGEYGIS	VIYADGRRFSYKDAVK	GVVEGMLDI	ND / ND / ND / ND / 1.61 / ND	1.61	0/18
GFDLEEYGIS	VIYADGMRTVYAHSVK	GHYGLGKVG	ND / ND / ND / ND / ND / ND	ND	0/18
GKSLDDYGIS	VIYADGLRTSYTETVK	GNSGGVFIV	ND / ND / ND / ND / ND / ND	ND	0/18
GFGLGEYGIS	VIYADGRRTFYSDDVK	GNMIVNGVD	ND / ND / ND / ND / ND / ND	ND	0/18
GFDLQEYGIS	VIFADGLRSAYSDKVK	GQINGYFVV	ND / ND / ND / ND / 1.94 / ND	1.94	1/18 (1.69)
GGNLDEYGIS	VIYADGKRRQYVDNVK	GEHADAFDM	ND / ND / ND / ND / ND / ND	ND	1/18 (1.62)
GFSLDEYGIS	VIYADGLRSFYQDQVK	GELALSLDT	ND / ND / ND / ND / ND / 3.91	3.91	2/18 (0.95)
GFDLGEYGIS	VIYADGHRAAYSDNVK	GAHSGSVQT	ND / ND / ND / ND / ND / 2.73	2.73	1/18 (3.83)
GFSLDEYGIS	VIYADGMRAAYQPSVK	GFTGFVVAL	ND / ND / ND / ND / ND / ND	ND	0/18
GFDLEEYGIS	VIYADGERVFYADSVK	GGFDGYKTR	ND / ND / ND / ND / ND / ND	ND	0/18
GFSINEYGIS	VIYADGRRTFYGNAVK	GMAAVTFDQ	ND / ND / ND / ND / ND / ND	ND	0/18
GNSLDEYGIS	VIYADGMRTAYTDNFK	GVGSNTLVD	ND / ND / ND / ND / ND / ND	ND	0/18
GGDLKEYGIS	VIYADGNRKYYADNVK	GQNGDVLNI	ND / ND / ND / ND / ND / ND	ND	0/18
GFDLEEYGIS	VIYADGMRTQYINAVK	GIIGDNLDL	ND / ND / ND / ND / ND / ND	ND	0/18
GSNLDEYGIS	VIYADGFRSHYAEKVK	GQQGGFFIK	ND / ND / ND / ND / ND / ND	ND	0/18
GFDLNEYGIS	VIYADGSRQMYANNVK	DHMGGMKLV	ND / ND / 1.40 / ND / ND / ND	1.40	0/18
GFDLMEYGVS	VIYADGQRTYYTNAVK	GEISAGFLI	ND / ND / ND / ND / ND / ND	ND	0/18
GFDINEYGIS	VIYADGSRQAYADNVK	GFWGCVIYV	ND / ND / ND / ND / ND / ND	ND	0/18
GFDLNEYGIS	VIYADGKRVAIEDSVK	GKSKGTVFV	ND / ND / ND / ND / ND / ND	ND	0/18
GQDLNEYGVS	VIYADGQRVQYAEDVK	GGYSGAVDF	ND / ND / ND / ND / ND / ND	ND	0/18
GFDLGEYGIS	VIYADGRRTAYQQSVK	GLNEGMLVI	ND / ND / ND / ND / ND / ND	ND	0/18
GFSLDEYGVS	VIYADGVRQSYCDDVK	GGIAGTFLY	ND / ND / ND / ND / ND / ND	ND	0/18
GFNIDEYGIS	VIYADGRRTVYSDNVK	GNYMASGKI	ND / ND / ND / ND / ND / ND	ND	0/18
GFDLDEYGVS	VIYADGMRSKYADSVK	GTTGGTIEA	ND / ND / ND / ND / ND / 3.21	3.21	0/18
GFVFDEYGIS	VIYADGKRQVYQDKVK	GENTGNFDT	ND / ND / ND / ND / ND / ND	ND	0/18
GFDFNEYGIS	VIYADGKRTAYANNVK	GGKDAATDI	ND / ND / ND / ND / ND / ND	ND	1/18 (2.74)
GYDIDEYGIS	VIYADGQRTSYQQNVK	GAGDITGLV	ND / ND / ND / ND / ND / ND	ND	0/18
GADINEYGIS	VIYADGDRIAAQDDVK	GTNAGSFDI	ND / ND / ND / ND / ND / ND	ND	0/18
GFQLEDYGIS	VIYADGRRTAYAADVK	GQNTVVSGG	ND / ND / ND / ND / ND / ND	ND	0/18
GKGLDEYGVS	VIYADGKRHSYVDDVK	GGIAGQFLV	ND / ND / ND / ND / ND / ND	ND	0/18
GFSLDNYGIS	VIYADGMRTAYANSVK	GEQDGFLTT	ND / ND / ND / ND / ND / ND	ND	0/18

Excerpt, the first 5 entries:

CDR-H1	CDR-H2	CDR-H3	log10 Kd (nM) by replicate	mean, log10 nM	empty controls
GFDLGEYGIS	VIYADGRRFSYKDAVK	GVVEGMLDI	ND / ND / ND / ND / 1.61 / ND	1.61	0/18
GFDLEEYGIS	VIYADGMRTVYAHSVK	GHYGLGKVG	ND / ND / ND / ND / ND / ND	ND	0/18
GKSLDDYGIS	VIYADGLRTSYTETVK	GNSGGVFIV	ND / ND / ND / ND / ND / ND	ND	0/18
GFGLGEYGIS	VIYADGRRTFYSDDVK	GNMIVNGVD	ND / ND / ND / ND / ND / ND	ND	0/18
GFDLQEYGIS	VIFADGLRSAYSDKVK	GQINGYFVV	ND / ND / ND / ND / 1.94 / ND	1.94	1/18 (1.69)

The authors' rule: three or more of the six replicates give a measured affinity, fewer mean a poor binder. Values of this round are not directly comparable with the first-round values of the same sequences. Empty control strains, which show no peptide, gave a signal in 1% of pairings with all heavy chain designs; the median was 2.08 and 95% of these signals were weaker than 0.84. No background was subtracted. The control count says in how many pairings with the empty strains this scFv gave a signal, with their mean in brackets.

Reference: Li et al. 2023, doi:10.1038/s41467-023-39022-2. File: FLAb, binding data.